# Compound activity (PubChem BioAssay)
# In the library only some 1.8% were active in any assay of this set; here they are far more common.
# E-selectin induc – E-selectin induction on HUVECs; P16581; HUVEC E-selectin immunofluorescence imaging; normalized: neutral wells 0, TNF-alpha wells 100; activation, % at 7.58 µM; 260,000 compounds, 0.37% hits; AID 686992;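 active means mean E-selectin-positive cell signal at least 10% of the positive control, reached in at least 60% of replicates, without over 20% cell loss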
#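 Test system: HUVEC | Signal: Immunofluorescence imaging | Read-out: Percent E-selectin-positive cells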
# RAD54 inh – inhibitors of human RAD54 branch migration | inhibition, % at 10.4 µM | AID 602329 | Q92698 | RAD54 Holliday junction branch migration, FAM/BHQ fluorescence | 360,000 compounds, 0.14% hits;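 active means mean normalized replicate activity at least 40 and at least half of replicates scoring 40 or more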;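 further: 0% = median of neutral control wells and 100% = median of positive control wells; inhibitors cause a drop in the FAM fluorescence signal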
# SIRT5 inh – blocks human SIRT5 desuccinylation of peptide; AID 652115; Purified SirT5, succinyl-peptide AMC, trypsin-coupled fluorescence; inhibition, % at 15 µM; 330,000 compounds, 1.1% hits; Q9NXA8; in the data active means inhibition above about 15%
# MLL AF4-AF9 inh – inhibitors of human MLL-AF4/AF9 interaction. AlphaScreen, biotin-AF4 peptide binding to FLAG-AF9. inhibition, % at 10 µM. 350,000 compounds, 0.47% hits;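 active means every replicate reaching a set inhibition limit, whatever the replicate mean, cut at about 25% in these data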;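 further: 0% = plate neutral control median and 100% = total signal loss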
# RAD52 inh – RAD52 (human) annealing inhibition | P43351 | recombinant RAD52 DNA annealing, FRET fluorescence | inhibition, % at 18.7 µM | 360,000 compounds, 0.46% hits;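 active means every replicate showing at least 50% inhibition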
# Yeast UUG start – yeast start codon fidelity modulation | S. cerevisiae UUG-firefly luciferase reporter, luminescence/redox ratio | activity score, % at 18.7 µM | hit rate 0.13% among 350,000 | AID 602363;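 active means replicate mean at a twofold rise or more, about +100% in these data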;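 further: firefly luciferase made from a UUG start codon reports start codon fidelity; reporter light over untreated wells divided by growth signal over untreated wells; some hits fall short of that in this replicate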
# * hit, by the source's call; i = inactive; x = no result.
# Key to letters – A = E-selectin induc; B = RAD54 inh; C = SIRT5 inh; D = MLL AF4-AF9 inh; E = RAD52 inh; F = Yeast UUG start
[1] O=C1C(Cl)=CC(=Nc2ccc(O)cc2)C=C1Cl
  A = x; B = 2; C = 0; D = 36*; E = -9; F = -4
[2] C/C=C/c1ccc(C2[C@@H]3CN(C(C)=O)C[C@H]2N3)cc1 (some centres undefined)
  A = 0; B = x; C = -5; D = -11; E = 14; F = x
[3] CS(=O)(=O)c1ccc(C2=C(CNC(=O)c3nccs3)[C@H]3CC[C@@H](C2)N3CCOc2ccccc2)cc1
  A = 0; B = -11; C = x; D = -24; E = -11; F = 10
[4] CS(=O)(=O)c1ccc(C2=C(CNC(=O)c3cccs3)[C@H]3CC[C@@H](C2)N3CCOc2ccccc2)cc1
  A = -1; B = 1; C = 30*; D = 4; E = -9; F = -7
[5] CC=Cc1ccc2n(c1=O)C[C@@H]1[C@@H](CO)[C@H](C(=O)OC)[C@H]2N1CC1CCOCC1 (mixture of isomers)
  A = -1; B = 5; C = 0; D = 0; E = -7; F = x
[6] O=C(Cc1cccnc1)N1CCCCN2[C@H](CO)[C@@H](c3ccc(C#CC4CCCC4)cc3)[C@H]2C1
  A = 0; B = -3; C = -1; D = 4; E = 14; F = -9
[7] O=P(Oc1ccccc1)(N1CCOCC1)N1CCOCC1
  A = 1; B = -6; C = 6; D = 4; E = -8; F = -20
[8] CN(c1ccccc1)P(=O)(N1CC1)N1CC1
  A = 0; B = x; C = 16*; D = 0; E = -6; F = x
[9] COP(=O)(NC(=O)C(Cl)(Cl)Cl)OC
  A = 3; B = x; C = 2; D = 27*; E = -11; F = x
[10] CC[n+]1c(-c2ccccc2)c2cc(N)ccc2c2ccc(N)cc21
  A = 12; B = x; C = -1; D = 30*; E = -50; F = x
[11] C=Cc1ccc(Cn2c(C(=O)O)c(C=O)c3ccccc32)cc1
  A = 7; B = x; C = 17*; D = -2; E = -169; F = x
[12] COc1ccccc1N1C(=O)NC(=O)/C(=C/c2ccc([N+](=O)[O-])s2)C1=O
  A = 4; B = x; C = 18*; D = 5; E = -39; F = x
[13] COc1ccc(N2C(=O)NC(=O)/C(=C/c3ccc([N+](=O)[O-])s3)C2=O)cc1
  A = 0; B = -7; C = 16*; D = x; E = i; F = -5
[14] COc1cccc(N2C(=O)NC(=O)/C(=C/c3ccc4c(c3)Cc3ccccc3-4)C2=O)c1
  A = 4; B = 9; C = -2; D = -7; E = -50; F = -8
[15] COc1ccccc1N1C(=O)NC(=O)/C(=C\c2cnn(-c3ccccc3)c2)C1=O
  A = 4; B = 6; C = 1; D = -1; E = -24; F = -12
[16] COc1cccc(N2C(=O)NC(=O)/C(=C/c3ccc([N+](=O)[O-])s3)C2=O)c1
  A = 0; B = -19; C = 15*; D = 3; E = -62; F = 0
[17] COc1ccc(N2C(=O)NC(=O)/C(=C\c3ccc([N+](=O)[O-])s3)C2=O)cc1
  A = x; B = x; C = 20*; D = -3; E = i; F = x
[18] CC=Cc1ccc2n(c1=O)C[C@@H]1[C@@H](CO)[C@H](C(=O)OC)[C@H]2N1C(=O)CC1CC1 (mixture of isomers)
  A = 0; B = -1; C = -12; D = 3; E = -2; F = x
[19] CC=Cc1ccc2n(c1=O)C[C@H]1[C@H](CO)[C@@H](C(=O)OC)[C@@H]2N1CC1CCCC1 (mixture of isomers)
  A = 0; B = x; C = 2; D = -3; E = -3; F = x
[20] Cc1ccnc(NC(=O)CCCc2ccc(N(CCCl)CCCl)cc2)n1
  A = 0; B = -11; C = -1; D = 26*; E = 31; F = -6
[21] CCc1ccc2nc(N3CCC(C(=O)N4CCC5(CC4)OCCO5)CC3)sc2c1
  A = 0; B = 2; C = 30*; D = -2; E = -35; F = 1
[22] Cc1ccc2nc(N3CCC(C(=O)N4CCC5(CC4)OCCO5)CC3)sc2c1
  A = x; B = -2; C = x; D = x; E = x; F = -10
[23] C[C@]12CCC3C(CC[C@H]4C[C@@H](O)CC[C@]34C)C1C[C@@H](Br)[C@@H]2O (some centres undefined)
  A = 0; B = x; C = 23*; D = -1; E = 4; F = x
[24] C[C@]12CCC3C(CC[C@H]4C[C@@H](O)CC[C@]34C)C1C[C@@H](N)[C@@H]2O (some centres undefined)
  A = 0; B = -6; C = 0; D = -2; E = 0; F = -1
[25] CN(N)N=Nc1nc2c([nH]1)c(=O)n(C)c(=O)n2C
  A = 58*; B = x; C = x; D = -2; E = -23; F = x
[26] C[C@H]1CN([C@@H](C)CO)C(=O)c2c(c3ccccc3n2C)-c2ccccc2CO[C@@H]1CN(C)C(=O)Oc1ccccc1
  A = 0; B = x; C = 6; D = 3; E = 15; F = x
[27] COc1ccc(CN2C(=O)NC(=O)/C(=C/c3ccc([N+](=O)[O-])s3)C2=O)cc1
  A = x; B = -19; C = 41*; D = 1; E = -90; F = -2
[28] O=C1NC(=O)N(Cc2ccc(F)cc2)C(=O)/C1=C\c1ccc([N+](=O)[O-])s1
  A = x; B = -29; C = 28*; D = 3; E = -167; F = -5
[29] O=C(Cc1ccccc1)N1CCCCN2[C@H](C1)[C@H](c1ccc(C#Cc3ccccc3)cc1)[C@@H]2CO
  A = -1; B = -8; C = -2; D = -3; E = -8; F = 16
[30] COC(=O)[C@@H]1[C@@H](CO)[C@@H]2Cn3c(ccc(C4=CCCCC4)c3=O)[C@H]1N2CC1CCCC1
  A = 0; B = -4; C = 6; D = 8; E = -2; F = 11
[31] CC(=O)N1[C@@H]2c3ccc(-c4cccc(C(=O)N(C)C)c4)c(=O)n3C[C@H]1[C@H](CO)[C@H]2C(=O)O
  A = -1; B = x; C = -38; D = -5; E = 3; F = x
[32] S=C=Nc1cccc(C2(N3CCCCC3)CCCCC2)c1
  A = 0; B = -13; C = -4; D = 9; E = 84*; F = -10
[33] c1ccc(C2(N3CCCCC3)CCCCC2)cc1
  A = x; B = -12; C = x; D = x; E = -1; F = -4
[34] CC(C)NS(=O)(=O)c1ccc(OCC(=O)N2CCN(Cc3ccccc3)CC2)cc1
  A = x; B = 3; C = x; D = x; E = x; F = -5
[35] O=C(COc1ccc(Cl)cc1)N1CCN(Cc2ccccc2)CC1
  A = x; B = -10; C = 16*; D = 2; E = 5; F = -14
[36] COc1cc(CN2CCN(C(=O)Cc3ccccc3)CC2)cc(OC)c1OC
  A = x; B = -1; C = 15*; D = -6; E = -20; F = -19
[37] Cc1cccc(CN2CCCC(C(=O)c3ccc4c(c3)OCO4)C2)n1 (centres undefined)
  A = 33*; B = -2; C = -3; D = -1; E = -16; F = -9
[38] O=C(Cc1cccnc1)N1CCCCN2[C@H](C1)[C@@H](c1ccc(C#CC3CC3)cc1)[C@@H]2CO
  A = x; B = -15; C = 0; D = 10; E = 1; F = -4
[39] Cn1c(O)c(C(=Nc2ccccc2)SCc2ccccc2Cl)c(=O)n(C)c1=O
  A = 0; B = 1; C = -1; D = -1; E = -15; F = -7
[40] CSC(=Nc1ccccc1)c1c(O)n(C)c(=O)n(C)c1=O
  A = x; B = -22; C = 19*; D = x; E = -100; F = -4
[41] C/C=C1\NC(=O)[C@H](C)NC(=O)[C@@H](NC(=O)[C@H](Cc2ccc(O)cc2)NC(=O)[C@@H](NC(=O)/C(C)=C/C)C(C)C)[C@@H](C)OC(=O)[C@H](CCCc2ccc(O)cc2)NC(=O)[C@@H](CCC(=O)O)NC1=O
  A = 0; B = -11; C = 22*; D = 0; E = -15; F = 21
[42] Cc1ccc(NC(=O)CN2C(=O)CN=C(c3ccccc3)c3cc(Cl)ccc32)cc1
  A = 0; B = 4; C = -4; D = 9; E = 0; F = -3
[43] CN(C)c1ccc(NC(=O)CN2C(=O)CN=C(c3ccccc3)c3cc(Cl)ccc32)cc1
  A = -2; B = 8; C = -1; D = 27*; E = 1; F = -18
[44] CCCN1[C@@H]2Cn3c(ccc(-c4cccc(OC)c4)c3=O)[C@H]1[C@@H](C(=O)OC)[C@@H]2CO
  A = 1; B = x; C = -8; D = -18; E = -19; F = x

# Complete entries, quoted from the list. Order of values: E-selectin induc	RAD54 inh	SIRT5 inh	MLL AF4-AF9 inh	RAD52 inh	Yeast UUG start
# Listed for C=Cc1ccc(Cn2c(C(=O)O)c(C=O)c3ccccc32)cc1 → 7	x	17*	-2	-169	x
# Listed for S=C=Nc1cccc(C2(N3CCCCC3)CCCCC2)c1 → 0	-13	-4	9	84*	-10
# Listed for CC[n+]1c(-c2ccccc2)c2cc(N)ccc2c2ccc(N)cc21 → 12	x	-1	30*	-50	x
